Experimental data: ChEMBL document CHEMBL1121863, “New analgesic drugs derived from phencyclidine” (1981)
Converted amounts (≈) assume the structure as drawn.

Chains of the proteins cited; added tags and fusions are not shown.
UniProt P00934, whole entry, entry inferred from the test as described: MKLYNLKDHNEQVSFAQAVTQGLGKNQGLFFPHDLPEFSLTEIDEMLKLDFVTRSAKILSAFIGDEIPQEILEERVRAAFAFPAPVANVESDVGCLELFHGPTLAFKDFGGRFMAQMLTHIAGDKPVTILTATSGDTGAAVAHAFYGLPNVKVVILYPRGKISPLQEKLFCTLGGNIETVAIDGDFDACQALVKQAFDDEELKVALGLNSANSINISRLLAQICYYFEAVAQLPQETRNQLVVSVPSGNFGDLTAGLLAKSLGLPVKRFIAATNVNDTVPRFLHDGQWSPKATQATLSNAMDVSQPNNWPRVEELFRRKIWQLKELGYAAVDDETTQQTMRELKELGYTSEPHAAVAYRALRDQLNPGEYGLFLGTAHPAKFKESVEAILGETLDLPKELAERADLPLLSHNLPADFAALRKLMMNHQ

Legend:
Mus musculus [1] = experiment: Compound was evaluated for the analgesic activity by administering through subcutaneous route in writhing test
Mus musculus [2] = experiment: Compound was evaluated for the analgesic activity by administering through subcutaneous route in hotplate test
Mus musculus [3] = organism: Mus musculus; experiment: Compound was evaluated for the potency to produce hyperactivity in mice
Mus musculus [4] = experiment: Lethal dose when administered through subcutaneous route; conditions: in vivo, sc
Mus musculus [5] = organism: Mus musculus; experiment: Compound was evaluated for the inhibition of twitches in mouse vas deferens
Mus musculus [6] = organism: Mus musculus; experiment: Inhibitory effect of naloxone antagonism
Rattus norvegicus [7] = experiment: Antagonistic effect against AVP-induced hypertension in rats after intravenous administration
Rattus norvegicus [8] = experiment: Diuretic effect was determined after peroral administration at a dose of 30 mg/kg in rats; conditions: route oral
Unchecked = Unchecked (Escherichia coli K-12, UniProt P00934); experiment: Inhibition of threonine synthase in Escherichia coli
Rattus norvegicus [9] = experiment: Diuretic effect was determined after peroral administration at a dose of 10 mg/kg in rats; conditions: route oral
Canis familiaris = organism: Canis familiaris; experiment: Compound was tested for the change in serum cholesterol (SC) levels in cholesterol fed dog
Monkey = experiment: Compound was tested for the change in serum cholesterol (SC) levels in cholesterol fed monkey
P388 = experiment: In vitro cytotoxicity against murine p388 cancer cell line was evaluated
HT-29 = experiment: In vitro cytotoxicity against human HT-29 cancer cell line was evaluated
B16 = experiment: In vitro cytotoxicity against murine B16 cancer cell line was evaluated
A549 = experiment: In vitro cytotoxicity against human A-549 cancer cell line was evaluated

SMILES: COC(=O)C1CCN(C2(c3ccccc3)CCCCC2)CC1
- ED50 (Mus musculus [1]): 14.5 mg/kg
- ED50 (Mus musculus [2]): 40 mg/kg
- Relative potency (Mus musculus [3]): 2

SMILES: CCOC(=O)C1(c2ccccc2)CCN(C2(c3ccccc3)CCCCC2)CC1
- LD50 (Mus musculus [4]): > 300 mg/kg
- ED50 (Mus musculus [1]): 5.8 mg/kg
- ED50 (Mus musculus [2]): 12.1 mg/kg
- IC50 (Mus musculus [5]): 780 nM
- pA2 (Mus musculus [6]): 8.74
- Relative potency (Mus musculus [3]): 1.1

SMILES: Nc1ccc(OC(=O)C2CCN(C3(c4ccccc4)CCCCC3)CC2)cc1
- ED50 (Mus musculus [1]): 9.3 mg/kg
- ED20 (Mus musculus [2]): 40 mg/kg
- Relative potency (Mus musculus [3]): 0.7

SMILES: Cc1ccccc1C(=O)Nc1ccc(C(=O)N2CCCCc3sccc32)cc1
- ID50 (Rattus norvegicus [7]): > 0.3 mg/kg

SMILES: COc1cc(NC(=O)c2ccccc2-c2ccccc2)ccc1C(=O)N1CCCCc2sccc21
- ID50 (Rattus norvegicus [7]): > 0.3 mg/kg
- Urine volume (Rattus norvegicus [8]): 3.5 ml 4hr-1

SMILES: N[C@@H](CSCP(=O)(O)O)C(=O)O
- Ki (Unchecked): 11 µM

SMILES: Cc1ccccc1C(=O)Nc1ccc(C(=O)N2CCCC(N(C)C)c3sccc32)cc1 (centres undefined)
- Urine volume (Rattus norvegicus [9]): 2.9 ml 4hr-1

SMILES: CN(C)C1CCCN(C(=O)c2ccc(NC(=O)c3ccccc3-c3ccccc3)cc2)c2ccsc21 (centres undefined)
- Urine volume (Rattus norvegicus [9]): 7.6 ml 4hr-1
- ID50 (Rattus norvegicus [7]): > 0.3 mg/kg
- Urine volume (Rattus norvegicus [8]): 9.9 ml 4hr-1

SMILES: O=C(Oc1cccnc1)C1CCN(C2(c3ccccc3)CCCCC2)CC1
- LD50 (Mus musculus [4]): > 300 mg/kg
- ED50 (Mus musculus [1]): 16.5 mg/kg
- ED20 (Mus musculus [2]): 45 mg/kg
- Relative potency (Mus musculus [3]): 1.3

SMILES: OC1CCN(C2(c3ccccc3)CCCCC2)CC1
- ED50 (Mus musculus [1]): 11.2 mg/kg
- Relative potency (Mus musculus [3]): 2.3

SMILES: COc1ccc([C@@H]2[C@@H](CCCc3ccccc3)C(=O)N2c2ccc(OC)cc2)cc1
- ED50 (Canis familiaris): 0.1 mg/kg
- ED50 (Monkey): 0.2 mg/kg

SMILES: O=C(Nc1ccc(C(=O)N2CCCCc3sccc32)cc1)c1ccccc1Cl
- ID50 (Rattus norvegicus [7]): > 0.3 mg/kg

SMILES: O=C(Oc1ccccc1)C1CCN(C2(c3ccccc3)CCCCC2)CC1
- LD50 (Mus musculus [4]): > 300 mg/kg
- ED50 (Mus musculus [1]): 24.5 mg/kg
- ED20 (Mus musculus [2]): 15 mg/kg
- Relative potency (Mus musculus [3]): 1.1

SMILES: OC1(c2ccccc2)CCN(C2(c3ccccc3)CCCCC2)CC1
- LD50 (Mus musculus [4]): 82.3 mg/kg
- ED50 (Mus musculus [1]): 0.27 mg/kg
- ED50 (Mus musculus [2]): 1.3 mg/kg
- IC50 (Mus musculus [5]): 82 nM
- pA2 (Mus musculus [6]): 8.76
- Relative potency (Mus musculus [3]): 1.2

SMILES: COc1ccc(OC(=O)C2CCN(C3(c4ccccc4)CCCCC3)CC2)cc1OC
- LD50 (Mus musculus [4]): 74 mg/kg
- ED50 (Mus musculus [1]): 5.2 mg/kg
- ED50 (Mus musculus [2]): 7.5 mg/kg
- Relative potency (Mus musculus [3]): 0.5

SMILES: O=C(Nc1ccc(C(=O)N2CCCCc3[nH]ccc32)cc1)c1ccccc1-c1ccccc1
- ID50 (Rattus norvegicus [7]): 0.07 mg/kg

SMILES: CCCCCCC(C)CCCCCCCCCCC[C@@H]1N[C@@H](CO)[C@@H]1O (some centres undefined)
- IC50 (P388): 0.22 µg/mL (≈ 0.595 µM)
- IC50 (HT-29): 0.13 µg/mL (≈ 0.352 µM)
- IC50 (B16): 0.079 µg/mL (≈ 0.214 µM)
- IC50 (A549): 0.099 µg/mL (≈ 0.268 µM)

SMILES: c1ccc(C2(N3CCCCC3)CCCCC2)cc1
- LD50 (Mus musculus [4]): 37.5 mg/kg
- ED50 (Mus musculus [1]): 2.8 mg/kg
- Relative potency (Mus musculus [3]): 5

SMILES: Oc1ccc2c3c1O[C@H]1[C@@H](O)C=C[C@H]4[C@@H](C2)NCC[C@@]341
- pA2 (Mus musculus [6]): 8.6

SMILES: O=C(Nc1ccc(C(=O)N2CCCCc3sccc32)cc1)c1ccccc1-c1ccccc1
- ID50 (Rattus norvegicus [7]): 0.11 mg/kg
- Urine volume (Rattus norvegicus [8]): 0.4 ml 4hr-1

SMILES: Cn1ccc2c1CCCCN2C(=O)c1ccc(NC(=O)c2ccccc2-c2ccccc2)cc1
- ID50 (Rattus norvegicus [7]): 0.15 mg/kg
- Urine volume (Rattus norvegicus [8]): 0.8 ml 4hr-1

SMILES: Cc1ccccc1C(=O)Nc1ccc(C(=O)N2CCCC(N(C)C)c3ccccc32)cc1 (centres undefined)
- Urine volume (Rattus norvegicus [9]): 2.9 ml 4hr-1
- ID50 (Rattus norvegicus [7]): > 0.3 mg/kg
- Urine volume (Rattus norvegicus [8]): 9.3 ml 4hr-1

SMILES: c1ccc(C2CCN(C3(c4ccccc4)CCCCC3)CC2)cc1
- LD50 (Mus musculus [4]): > 300 mg/kg
- ED50 (Mus musculus [1]): 42 mg/kg
- ED50 (Mus musculus [2]): 56 mg/kg
- IC50 (Mus musculus [5]): 7500 nM
- pA2 (Mus musculus [6]): 8.71
- Relative potency (Mus musculus [3]): 1

SMILES: CN(CCc1cccnc1)C1CCCN(C(=O)c2ccc(NC(=O)c3ccccc3-c3ccccc3)cc2)c2ccsc21 (centres undefined)
- Urine volume (Rattus norvegicus [9]): 3.8 ml 4hr-1

SMILES: COc1cc(C(=O)N2CCCCc3sccc32)ccc1NC(=O)c1ccccc1-c1ccccc1
- Urine volume (Rattus norvegicus [9]): 2.5 ml 4hr-1
- ID50 (Rattus norvegicus [7]): 0.11 mg/kg
- Urine volume (Rattus norvegicus [8]): 4.5 ml 4hr-1
